Target: T1, hERG K+ channel (Homo sapiens, UniProt Q12809)
T1 construct: expressed in transfected cells; called HEK293
Assay: FluxOR thallium flux assay in HEK293T cells expressing hERG
Format: cell-based
Settings: 50 μM
Protocol: […]. (C) Summary of dose-response (mean ± S.E., n = 5). […]. (F) Summary of dose−response (mean ± S.E., n = 6).
HEK293 cells stably expressing human Kv11.1 (hERG) were cultured in 96-well plates. After 48 h, the cells were incubated at 28 °C for 4 h to increase the membrane expression of hERG. The culture medium was replaced with a 80 μL/well of FluxOR (Invitrogen, Waltham, MA, USA) loading buffer and incubated for 1 h at 37 °C in the dark. After removing the loading buffer, 100 μL of assay buffer was added to each well. To measure the effect of VI-116 and DCPIB on hERG channels, the cells were pretreated with test compounds for 10 min. FluxOR fluorescence (excitation/emission: 490/525 nm) was recorded for 4 s before the addition of 20 μL of stimulus buffer containing thallium ions, and the fluorescence was recorded. FluxOR fluorescence was recorded and analyzed using the FLUOstar Omega microplate reader (BMG Labtech, Ortenberg, Germany) and the MARS Data Analysis Software (BMG Labtech, Ortenberg, Germany). All buffers were prepared according to the manufacturer’s instructions.

Chains of the proteins cited; added tags and fusions are not shown. Lines headed by an entry give the natural chain unless they say otherwise; changes in a name come on top.
UniProt Q12809: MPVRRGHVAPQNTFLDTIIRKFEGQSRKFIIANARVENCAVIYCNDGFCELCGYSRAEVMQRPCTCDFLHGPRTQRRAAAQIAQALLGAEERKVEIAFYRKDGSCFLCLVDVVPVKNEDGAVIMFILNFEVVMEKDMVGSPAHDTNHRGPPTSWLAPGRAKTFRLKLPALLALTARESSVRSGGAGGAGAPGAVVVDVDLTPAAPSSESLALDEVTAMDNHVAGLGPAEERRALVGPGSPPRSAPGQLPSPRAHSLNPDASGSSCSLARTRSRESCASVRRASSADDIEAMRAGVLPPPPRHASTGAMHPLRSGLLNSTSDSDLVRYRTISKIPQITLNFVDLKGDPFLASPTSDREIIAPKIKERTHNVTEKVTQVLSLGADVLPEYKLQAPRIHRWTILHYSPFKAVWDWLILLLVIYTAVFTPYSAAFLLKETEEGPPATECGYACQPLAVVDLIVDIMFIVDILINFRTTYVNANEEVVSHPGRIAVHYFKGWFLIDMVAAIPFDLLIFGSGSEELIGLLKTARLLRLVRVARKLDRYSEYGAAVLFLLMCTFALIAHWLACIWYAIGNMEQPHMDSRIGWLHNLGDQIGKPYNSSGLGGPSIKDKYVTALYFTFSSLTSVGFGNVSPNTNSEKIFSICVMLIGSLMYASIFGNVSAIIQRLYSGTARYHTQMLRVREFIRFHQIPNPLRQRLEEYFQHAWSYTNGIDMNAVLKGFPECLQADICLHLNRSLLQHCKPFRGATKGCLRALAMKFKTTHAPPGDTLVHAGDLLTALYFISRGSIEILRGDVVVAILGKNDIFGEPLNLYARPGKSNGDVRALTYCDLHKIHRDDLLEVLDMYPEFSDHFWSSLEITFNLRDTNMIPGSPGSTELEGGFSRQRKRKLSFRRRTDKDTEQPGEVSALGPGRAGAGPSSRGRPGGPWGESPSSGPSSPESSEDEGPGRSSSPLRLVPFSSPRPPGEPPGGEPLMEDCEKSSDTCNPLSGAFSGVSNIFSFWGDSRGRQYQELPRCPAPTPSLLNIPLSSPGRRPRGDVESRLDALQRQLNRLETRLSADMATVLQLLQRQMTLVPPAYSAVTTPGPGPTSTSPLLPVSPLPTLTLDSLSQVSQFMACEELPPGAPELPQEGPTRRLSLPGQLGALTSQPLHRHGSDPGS

## COc1cc(N)c(Cl)cc1C(=O)NC1CCN(CCCOc2ccc(F)cc2)CC1OC (stereo not shown) [cisapride, reference compound]
  inhibition of hERG channel: inhibited
